Sequences of proteins named here, by UniProt entry; tags and fusion partners are left off. Residues count along the entry.
UniProt P07949, 29-1114 limits assumed: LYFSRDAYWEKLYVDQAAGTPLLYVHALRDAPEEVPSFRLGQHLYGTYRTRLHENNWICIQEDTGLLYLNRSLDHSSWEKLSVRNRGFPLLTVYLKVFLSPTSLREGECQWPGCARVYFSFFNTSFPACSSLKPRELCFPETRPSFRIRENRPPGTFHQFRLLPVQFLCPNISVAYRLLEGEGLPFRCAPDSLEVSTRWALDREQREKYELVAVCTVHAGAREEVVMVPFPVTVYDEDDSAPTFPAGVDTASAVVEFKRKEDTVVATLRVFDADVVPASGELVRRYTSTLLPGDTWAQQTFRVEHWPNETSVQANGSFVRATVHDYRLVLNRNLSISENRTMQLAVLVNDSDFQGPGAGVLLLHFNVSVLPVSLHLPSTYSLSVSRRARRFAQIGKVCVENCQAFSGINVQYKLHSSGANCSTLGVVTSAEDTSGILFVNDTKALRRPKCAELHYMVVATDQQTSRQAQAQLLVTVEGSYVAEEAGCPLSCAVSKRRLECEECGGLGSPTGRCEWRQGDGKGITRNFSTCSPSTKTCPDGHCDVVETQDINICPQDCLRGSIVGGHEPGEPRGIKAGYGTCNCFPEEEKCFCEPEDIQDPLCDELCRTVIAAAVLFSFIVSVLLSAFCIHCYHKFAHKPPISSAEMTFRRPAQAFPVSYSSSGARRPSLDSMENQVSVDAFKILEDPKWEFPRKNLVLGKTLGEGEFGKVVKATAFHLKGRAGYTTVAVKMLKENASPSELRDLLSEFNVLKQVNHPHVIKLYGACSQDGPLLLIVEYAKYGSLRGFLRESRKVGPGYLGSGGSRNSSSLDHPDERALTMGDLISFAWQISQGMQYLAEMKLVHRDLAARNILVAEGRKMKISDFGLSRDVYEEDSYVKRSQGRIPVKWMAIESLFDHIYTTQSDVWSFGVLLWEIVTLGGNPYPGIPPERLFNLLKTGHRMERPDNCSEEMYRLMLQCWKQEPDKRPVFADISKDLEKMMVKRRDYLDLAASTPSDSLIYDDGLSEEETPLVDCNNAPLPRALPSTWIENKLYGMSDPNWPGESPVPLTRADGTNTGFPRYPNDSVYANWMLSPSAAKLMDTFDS

In patent publication US20260382605A1, “REVERSIBLE MACROCYCLIC KINASE INHIBITORS” (published 2026):

Key:
RET [1] = target: T1, RET (Homo sapiens, UniProt P07949); assay: Binding kinetics assay (surface plasmon resonance) RET; conditions: SPR, 22 °C
RET [2] = target: T1, RET; assay: Biochemical kinase assay RET (33P-ATP filter binding); conditions: read-out: IC50 value; RET 2 nM, 10 μM ATP, 20 min pre-incubation, 120 min reaction
Method: Biochemical Kinase Assay RET
The kinase activity of RET was assayed at Reaction Biology Corporation. The substrate in the RET reaction, TRK-C derived peptide (Genscript, Cat. #U4552FL280_1), was prepared in fresh reaction buffer (20 mM HEPES (pH 7.5), 10 mM MgCl2, 1 mM EGTA, 0.01% Brij35, 0.02 mg/mL BSA, 0.1 mM Na3VO4, 2 mM DTT, 1% DMSO). RET (Invitrogen, Cat. #PV3819) was delivered into the substrate solution and mixed gently. The final concentrations of RET and the substrate in the reaction were 2 nM and 20 μM respectively. Compounds were tested in 10-point concentration/response mode with 3-fold serial dilution steps starting at 10 μM.
Compounds in 100% DMSO were delivered into the kinase reaction mixture by acoustic liquid delivery technology (ECHO550; nanoliter range) and incubated for 20 min at room temperature. 10 μM [^33P]-ATP (ATP: Sigma, Cat #: A7699; [^33P]-ATP: Hartmann Analytic, Cat #: SCF-301-12) was delivered into the reaction mixture to initiate the reaction. The mixture was incubated for 120 min at room temperature. Radioactivity was detected utilizing a proprietary filter-binding method. Kinase activity data were expressed as the percent remaining activity in test samples compared to vehicle (DMSO) reactions. IC50 values and curve fits were obtained using Prism4Software (GraphPad).

[3] = system: REC-1 mantle cell lymphoma cells; assay: Cell proliferation assay REC-1; conditions: read-out: IC50 value, REC-1 cells, 120 hours

SMILES | Kd (RET [1]) | Target residence time Tau (τ) (RET [1]) | IC50 (RET [2]) | IC50 [3]
CC(C)(C)c1cc(NC(=O)Cc2ccc(-c3nc4n5c(cnc(N)c35)/C=C/CCOCCC(=O)N[C@@H]3CCC[C@@H]4C3)cc2)no1 | < 5 nM | C (τ 3 h) | < 5 nM | 
Nc1ncc2c3c1c(-c1ccc(C(=O)Nc4cc(C(F)(F)F)ccn4)cc1)nn3[C@@H]1CCC[C@H](C1)NC(=O)[C@H]1CN(C/C=C/2)CCN1 |  |  |  | < 50 nM
